Apparent affinities of Ab-95 variants for a coronavirus HR2 peptide

Data: MIT Lincoln Laboratory AlphaSeq set, Engelhart et al. 2022, doi:10.1038/s41597-022-01779-4, as distributed in FLAb.

Target: peptide PDVDLGDISGINAS, taken from heptad repeat 2 (HR2) of SARS-CoV-2 spike.

Ab-95 is the parent antibody, in scFv form: VH, then a (GGGGS)3 linker, then VL. The heavy chain is unchanged in all variants.
VH: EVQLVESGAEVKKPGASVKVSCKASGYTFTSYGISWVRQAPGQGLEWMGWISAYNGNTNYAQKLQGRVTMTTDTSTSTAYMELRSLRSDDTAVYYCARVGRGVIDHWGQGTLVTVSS
VL: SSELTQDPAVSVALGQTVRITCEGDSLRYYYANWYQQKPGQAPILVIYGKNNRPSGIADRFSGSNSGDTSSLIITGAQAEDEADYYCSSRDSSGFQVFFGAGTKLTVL

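Phage display of a naive human antibody library on the peptide gave the parent. Variants in AAYL52 differ from the parent at up to three CDR positions; double and triple changes were sampled at random. The assay is AlphaSeq: two haploid yeast populations carry antibody and antigen on their surface. The frequency of each diploid, read from paired DNA barcodes, reflects how well the two displayed proteins bind. Scores were corrected for input abundance and mapped to Kd with protein pairs of known affinity run in the same pool. Mating was done three times.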

Positions count from residue 1 of the parent VL; Y29S puts S in place of Y. Scale: log10 of Kd in nM, estimated from mating counts; low values are strong binders. Replicates are averaged; those with no signal do not enter the mean. "not detected" means that the variant was in the library but no mating with the target was seen in any replicate; the authors take this as a sign of poor binding, and no number exists.

| # | log10 Kd (nM), mean | replicates with signal | signal with controls | changes |
|---|---|---|---|---|
| 1 | 3.96 | 1 of 3 | 0 of 9 | Y29S/A32E/P54A |
| 2 | 4.16 | 2 of 3 | 2 of 9 | G49T/P54A/D91W |
| 3 | 2.35 | 3 of 3 | 4 of 9 | K50N/N52R/P54V |
| 4 | 3.32 | 2 of 3 | 0 of 9 | P54W/S55Y/S93E |
| 5 | 3.61 | 2 of 3 | 1 of 9 | L27K/Y31V/S93G |
| 6 | not detected | 0 of 3 | 2 of 9 | R28W/Y30W/G94P |
| 7 | 2.38 | 3 of 3 | 3 of 9 | E23Y/K50N/F98Y |
| 8 | 2.51 | 3 of 3 | 0 of 9 | S89K/G94H/V97F |
| 9 | 2.62 | 3 of 3 | 1 of 9 | E23S/Y29W/S89T |
| 10 | 2.27 | 1 of 3 | 0 of 9 | G24L/S89Y/S92V |
| 11 | 3.83 | 1 of 3 | 1 of 9 | A32F/N51K/S88T |
| 12 | 3.22 | 1 of 3 | 3 of 9 | Y29E/G49V/V97A |
| 13 | 2.82 | 3 of 3 | 2 of 9 | R28Y/Q96D |
| 14 | not detected | 0 of 3 | 2 of 9 | Y31C/G49M/G94S |
| 15 | not detected | 0 of 3 | 2 of 9 | R53Q/F95L/F98W |
| 16 | 3.06 | 3 of 3 | 3 of 9 | R28K/S92W/G94R |
| 17 | 3.20 | 2 of 3 | 4 of 9 | D91E/S92L/F95G |
| 18 | 4.06 | 2 of 3 | 1 of 9 | L27F/S55R/D91Y |
| 19 | 3.39 | 2 of 3 | 5 of 9 | Y29P/N33Q/G94H |
| 20 | not detected | 0 of 3 | 2 of 9 | S26H/N33I/G49P |
| 21 | not detected | 0 of 3 | 2 of 9 | G24L/L27T/N51F |
| 22 | 2.43 | 3 of 3 | 2 of 9 | E23Y/S93R |
| 23 | 3.69 | 2 of 3 | 2 of 9 | N33C/N51P/S89E |
| 24 | 4.08 | 3 of 3 | 3 of 9 | R28P/N33M/S89H |
| 25 | 4.02 | 1 of 3 | 2 of 9 | G24I/S55M/D91T |
| 26 | 3.45 | 1 of 3 | 3 of 9 | G24Q/R90N/S93P |
| 27 | 2.95 | 3 of 3 | 4 of 9 | Y31M/R90I/F98V |
| 28 | 4.83 | 1 of 3 | 1 of 9 | N51R/D91M/F98V |
| 29 | not detected | 0 of 3 | 1 of 9 | K50T/N52Y/R53F |
| 30 | 4.08 | 2 of 3 | 1 of 9 | K50T/N51T/S93H |
| 31 | 3.21 | 3 of 3 | 1 of 9 | E23Y/R90P/S92P |
| 32 | 2.93 | 3 of 3 | 2 of 9 | Y30T/A32L/G94F |
| 33 | 2.98 | 3 of 3 | 5 of 9 | R28G/S55Y/G94F |
| 34 | 3.54 | 3 of 3 | 1 of 9 | Y30A/N33A/V97N |
| 35 | 4.35 | 1 of 3 | 2 of 9 | E23F/N52R/S93I |
| 36 | 2.62 | 3 of 3 | 4 of 9 | L27S/S55K |
| 37 | 3.60 | 3 of 3 | 2 of 9 | Y29G/Y31R/N51V |
| 38 | not detected | 0 of 3 | 0 of 9 | D25M/P54D |
| 39 | 4.33 | 2 of 3 | 1 of 9 | Y30F/R90L |
| 40 | 3.54 | 1 of 3 | 0 of 9 | R28G/R53S/S93H |
| 41 | 3.50 | 1 of 3 | 3 of 9 | G24A/N33G/V97N |
| 42 | 4.29 | 3 of 3 | 4 of 9 | S26V/P54T/F98A |
| 43 | 3.65 | 2 of 3 | 4 of 9 | G49I/S89F/V97I |
| 44 | 4.23 | 1 of 3 | 2 of 9 | E23A/G49M/V97S |
| 45 | 2.47 | 3 of 3 | 2 of 9 | S89R/G94S/F95P |
| 46 | 4.89 | 2 of 3 | 3 of 9 | N33P/P54K/F95A |
| 47 | 4.13 | 2 of 3 | 5 of 9 | A32K/N33H/V97S |
| 48 | 3.53 | 1 of 3 | 1 of 9 | S26V/N52K/F95C |
| 49 | 4.42 | 1 of 3 | 3 of 9 | Y29V/P54S/V97H |
| 50 | 4.28 | 2 of 3 | 0 of 9 | Y31W/K50L/N51Q |
| 51 | 3.67 | 3 of 3 | 6 of 9 | Y30C/R53V/F98A |
| 52 | not detected | 0 of 3 | 0 of 9 | S92K/F95L/F98A |
| 53 | not detected | 0 of 3 | 1 of 9 | R28N/K50R/S89W |
| 54 | not detected | 0 of 3 | 1 of 9 | P54E/S89N/R90T |
| 55 | 3.09 | 2 of 3 | 3 of 9 | S89V/R90Y/F95V |
| 56 | 4.02 | 3 of 3 | 4 of 9 | R28S/G94S/F98Q |
| 57 | 5.44 | 1 of 3 | 3 of 9 | S92M/S93E |
| 58 | 3.87 | 3 of 3 | 2 of 9 | Y30T/G49F/S55A |
| 59 | not detected | 0 of 3 | 2 of 9 | L27H/Y29R/F98R |
| 60 | 4.88 | 1 of 3 | 4 of 9 | D25E/L27H/G94M |
| 61 | 4.38 | 3 of 3 | 5 of 9 | S55T/S93F/G94M |
| 62 | 2.64 | 3 of 3 | 3 of 9 | L27D/Y31M/S88E |
| 63 | 5.87 | 1 of 3 | 1 of 9 | N51V/S89Q/R90W |
| 64 | 4.65 | 3 of 3 | 3 of 9 | Y30E/N52Q/S88P |
| 65 | 2.54 | 3 of 3 | 3 of 9 | R28G/P54A/F95Q |

Parent in this assay: reference entry 2.31, copy in this library 2.25. Background: pairings of library AAYL52 with three empty control strains gave a value in 28% of cases (median 3.91, 5th percentile 2.90). Values in that range, when seen in few replicates, are hard to tell from nonspecific mating. For each scFv, signals with the empty controls are counted beside the result.